Screening data as filed in PubChem.
Only some compounds are listed: those with a hit (about 2.8% of all), similar ones and a draw of the others.
esBAF inh: blocks esBAF chromatin remodeling in mouse ES cells; Bmi1-luciferase knock-in reporter, 24 h; 100% = twice the neutral-well signal; reporter increase, % at 12.5 µM; 350,000 compounds, 2% hits; AID 602393; in the data active = activation above about 40%; inconclusive = no clear call, values can overlap the other calls;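 also: 0% = median of the plate's neutral control wells and 100% = double that signal; a rise in the Bmi1 reporter signal indicates esBAF inhibition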
E-sel inducer: induces E-selectin expression in human endothelial cells | P16581 | HUVEC E-selectin immunofluorescence imaging; normalized: neutral wells 0, TNF-alpha wells 100 | activation, % at 7.58 µM | 260,000 compounds, 0.37% hits | AID 686992;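 active = mean E-selectin-positive cell signal at least 10% of the positive control, reached in at least 60% of replicates, without over 20% cell loss; inconclusive = no rule given, readout overlaps actives, possibly toxicity-flagged; inactive = the rest, including those meeting only one limit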
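material = human umbilical vein endothelial cells (HUVEC), E-selectin induction | quantity = 3,000 cells/well | medium = EGM-2 growth medium on 0.1% gelatin-coated wells | technique = immunofluorescence imaging | read-out basis = % PE-positive cells | control set = TNF-alpha positive control, DMSO neutral control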
UUG fidelity: modulators of yeast start codon fidelity, primary screen, whole organism, S. cerevisiae, single point, plate reader; S. cerevisiae UUG-firefly luciferase reporter, luminescence/redox ratio; activity score, % at 18.7 µM; actives 0.13% (n = 350,000);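 active means replicate mean at a twofold rise or more, about +100% in these data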;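 further: firefly luciferase made from a UUG start codon reports start codon fidelity; reporter light over untreated wells divided by growth signal over untreated wells; some hits fall short of that in this replicate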
PGC1a acetyl inh: modulators of PGC1a acetylation; U2OS PGC1a acetylation, AlphaScreen anti-acetyl-lysine; with virally co-expressed GCN5 acetyltransferase; inhibition, % at 15.6 µM; 350,000 compounds, 0.17% hits; AID 651687;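 active = every replicate shows inhibition of at least 40%; inconclusive = mean inhibition at least 40% but some replicate below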;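 also: 0% = neutral control wells and 100% = positive control wells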
C2C12 statin: protects C2C12 myotubes from simvastatin toxicity | ATP luminescence, 48 h; scaled: DMSO 0, geranylgeraniol control 100 | rescue of ATP level, % at 7.49 µM | 330,000 compounds, 0.78% hits | AID 602340;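 active = mean ATP rescue above about 67%, or every replicate alone reaching that limit, limit read from the data, passing the limit was not always enough; inconclusive = no clear call, values can overlap the other calls; inactive = mean under the limit and some replicate under it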;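 also: myotubes were challenged with 10 µM simvastatin during compound exposure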
PglD inh: blocks C. jejuni PglD acetyltransferase activity; AID 602405; inhibition, % at 12.5 µM; purified PglD enzyme, DTNB colorimetric CoA detection; 360,000 compounds, 0.098% hits; in the data active = inhibition above about 16%, passing the limit was not always enough; inconclusive = no clear call, values can overlap the other calls
* hit, by the source's call; ? = inconclusive; / = not tested or not shown.

1) Cc1ccc(S(=O)(=O)Cc2ccc(C(=O)NCc3cccs3)o2)cc1
2) Cc1ccc(CNC(=O)C2(S(=O)(=O)c3ccc(C)cc3)CC2)cc1
3) CCN(CC)CCCNC(=O)c1ccc(CS(=O)(=O)c2ccccc2OC)o1
4) Cc1ccc(CNC(=O)c2ccc(CS(=O)(=O)c3ccccc3)o2)cc1
5) Cc1ccc(CNC(=O)C2(S(=O)(=O)c3ccccc3)CC=CC2)cc1
6) CCCCNC(=O)c1ccc(CS(=O)(=O)c2ccccc2OC)o1
7) C/C(=N\NC(N)=S)c1ccccc1
8) C/C(=N\NC(N)=S)c1cc(-c2ccccc2)c(-c2ccccc2)s1

Screen / compound no.,1,2,3,4,5,6,7,8
esBAF inh,8,6,-5,0,73*,3,/,-7
E-sel inducer,/,0,0,5,/,0,0,0
UUG fidelity,/,-7,-18,-12,-10,-8,-38,-15
PGC1a acetyl inh,/,0,2,44*,3,44*,6,/
C2C12 statin,/,13,0,9,-1,8,/,108*
PglD inh,/,1,2,14,-4,8,0,-4

9) Cc1ccc(CSc2ccc(-c3ccco3)nn2)cc1
10) Cc1cccc(CSc2ccc(-c3ccco3)nn2)c1
11) O=C(Nc1ccc(F)cc1)N1C[C@H]2[C@@H](c3ccccc31)[C@H](CO)N2C(=O)c1cccnc1
12) CN1C(=O)c2cc(NC(=O)Cc3cccs3)ccc2OC[C@H]2O[C@H](CC(=O)N[C@H]3CCN(Cc4ccccc4)C3)CC[C@H]21
13) Cn1c(CNS(=O)(=O)c2ccc(Cl)cc2)cc(=O)n(C)c1=O
14) N#Cc1ccc(CSc2ccccn2)c(Cl)c1
15) N#Cc1ncccc1CCc1cccc(Cl)c1
16) O=C1C2C3C=CC(CC3)C2C(=O)N1/N=C/c1c[nH]c2ccccc12 (stereo not drawn)

Screen / compound no.,9,10,11,12,13,14,15,16
esBAF inh,?,50*,8,3,-3,9,43*,61*
E-sel inducer,/,0,0,0,97*,2,/,/
UUG fidelity,-21,-11,59,/,-12,-15,-4,/
PGC1a acetyl inh,5,1,0,/,6,/,/,10
C2C12 statin,5,-7,7,11,-6,-6,-16,4
PglD inh,2,5,-1,8,0,-2,4,/

17) Cc1ccccc1OCc1nnc2c3cnn(C)c3ncn12
18) CCC(C)C(=O)N1CCCC(c2nc(-c3cccs3)no2)C1 (stereo not drawn)
19) CCCC(=O)N1CCCC(c2nc(-c3cccs3)no2)C1 (stereo not drawn)
20) CCS(=O)(=O)N1CCCCN2[C@H](CO)[C@H](c3ccc(C#CC(C)(C)O)cc3)[C@H]2C1
21) O=C(C[C@@H]1CC[C@@H]2[C@H](COC[C@@H](O)CN2Cc2ccccc2F)O1)NC1CCC1
22) COCC(=O)N1CC2(CCN(Cc3cncnc3)CC2)c2c(n(C)c3cc(OC)ccc23)[C@H]1CO
23) C[C@H]1CN([C@@H](C)CO)C(=O)c2cccc(NS(=O)(=O)c3cccs3)c2O[C@@H]1CN(C)Cc1ccc(-c2ccccc2)cc1
24) O=c1c2ccccc2nc(-c2ccco2)n1-c1nc2ccccc2s1

Screen / compound no.,17,18,19,20,21,22,23,24
esBAF inh,54*,53*,?,/,6,/,-2,/
E-sel inducer,/,/,/,0,0,0,-5,/
UUG fidelity,-16,-4,-8,-5,-8,/,-10,/
PGC1a acetyl inh,-8,-9,42,8,-5,0,-2,-4
C2C12 statin,-4,2,11,/,-12,/,6,/
PglD inh,-4,2,-5,1,-2,/,0,/

4 of the compounds above, with tabs:
entry	mol	esBAF inh	E-sel inducer	UUG fidelity	PGC1a acetyl inh	C2C12 statin	PglD inh
8	C/C(=N\NC(N)=S)c1cc(-c2ccccc2)c(-c2ccccc2)s1	-7	0	-15	/	108*	-4
3	CCN(CC)CCCNC(=O)c1ccc(CS(=O)(=O)c2ccccc2OC)o1	-5	0	-18	2	0	2
4	Cc1ccc(CNC(=O)c2ccc(CS(=O)(=O)c3ccccc3)o2)cc1	0	5	-12	44*	9	14
6	CCCCNC(=O)c1ccc(CS(=O)(=O)c2ccccc2OC)o1	3	0	-8	44*	8	8

Further structures
25) Cn1c(-n2c(-c3ccco3)nc3ccccc3c2=O)nc2ccccc21
26) COc1ccc(-c2ccc([C@@H]3[C@@H](CO)N4C(=O)CN(Cc5ccccc5)C[C@H]34)cc2)cc1
27) COC(=O)CCCC(=O)N1CCOCCN(C(=O)CCCC(=O)OC)CCOCC1
28) Cc1noc(C)c1NC(=O)N[C@@H]1C=C[C@H](CC(=O)N2CCN(C)CC2)O[C@H]1CO
29) CC1(C)OC2OC(C(=O)N/N=C/c3ccccc3F)C3OC(C)(C)OC3C2O1 (stereo not drawn)
30) CCOC(=O)c1sc(Nc2ccccc2Cl)nc1C
31) CCOC(=O)c1sc(NC(=O)c2ccc3ncsc3c2)nc1C
32) CCOC(=O)c1sc(NC(=O)CN2C(=O)C3CC=CCC3C2=O)nc1C (stereo not drawn)

Screen / compound no.,25,26,27,28,29,30,31,32
esBAF inh,49*,/,-1,-6,-1,65*,51*,-1
E-sel inducer,/,0,/,1,/,1,0,151*
UUG fidelity,-15,/,0,-3,-7,85,-15,7
PGC1a acetyl inh,-1,-7,1,3,-7,-1,11,6
C2C12 statin,/,/,110*,0,103*,10,-21,-6
PglD inh,0,/,-4,0,-1,4,1,4

33) CCOC(=O)c1sc(NC(=O)CN2CC(C)OC(C)C2)nc1C (stereo not drawn)
34) CCCC(=O)Nc1nc2ccc(C(=O)OCC)cc2s1
35) CCOC(=O)c1sc(NC(=O)c2ccc(S(=O)(=O)N(C)C)cc2)nc1C
36) CCOC(=O)c1ccc2nc(NC(=O)C(C)C)sc2c1
37) C[C@@H]1CN([C@H](C)CO)C(=O)c2cccc(NC(=O)Nc3ccc(F)cc3)c2O[C@@H]1CN(C)Cc1ccc(-c2ccccc2)cc1
38) CC(C)CC#Cc1ccc2c(c1)O[C@@H](CN(C)C(=O)Cc1ccccn1)[C@H](C)CN([C@@H](C)CO)S2(=O)=O
39) CN(C)C(=O)c1cc2c(c(-c3cccc(-c4ccccc4)c3)n1)[C@H](CCO)N([S@@](=O)C(C)(C)C)C2
40) CCOC(=O)c1sc(NC(=O)c2ccc(CC)s2)nc1C

Screen / compound no.,33,34,35,36,37,38,39,40
esBAF inh,-8,65*,0,37,-4,3,/,51*
E-sel inducer,/,0,/,0,0,1,0,/
UUG fidelity,-17,-11,-11,-11,1,2,/,-6
PGC1a acetyl inh,/,8,15,2,9,3,-1,14
C2C12 statin,4,0,-27,-8,/,-10,/,18
PglD inh,5,3,-2,1,-3,-3,/,-2

41) CCc1ccc(C(=O)Nc2nc(C)cs2)s1
42) COC(=O)Cc1csc(Nc2ccccc2Cl)n1
43) CCc1ccc(C(=O)Nc2cc(C)ccc2F)s1
44) CNC(=O)C[C@@H]1CC[C@H]2[C@@H](COc3ccc(NC(=O)c4ccccc4F)cc3C(=O)N2C)O1
45) C[C@H](CO)N1C[C@H](C)[C@H](CN(C)S(=O)(=O)c2ccc(Cl)cc2)Oc2c(NC(=O)Nc3ccc(F)cc3)cccc2C1=O
46) C[C@@H]1CN([C@H](C)CO)S(=O)(=O)c2ccc(-c3ccc(C#N)cc3)cc2O[C@H]1CN(C)Cc1ccccn1
47) OC[C@H]1[C@@H](c2ccc(/C=C/c3ccccc3)cc2)[C@@H]2CN(Cc3cccnc3)CCCCN12
48) COc1cccc(NC(=O)/C=C/c2ccco2)c1
49) COc1ccccc1NC(=O)/C=C\c1ccco1

Screen / compound no.,41,42,43,44,45,46,47,48,49
esBAF inh,-28,54*,66*,5,5,3,7,/,54*
E-sel inducer,1,/,0,0,/,0,0,3,0
UUG fidelity,-60,-7,5,5,-8,-20,-23,/,-1
PGC1a acetyl inh,10,-3,-14,9,12,12,-10,6,-8
C2C12 statin,2,6,3,1,-21,-8,8,/,-3
PglD inh,1,-6,-8,-2,7,0,5,/,-6
